The nature of data set [1]: Water solubility of the recovered solid (description). It is filed as physicochemical. As to conditions: dried solid.
Data set [2] in a line: Elution test: amount of PQQ dissolved from the calcium salt with or without a chelating substance. The data set is classed as physicochemical. As to conditions: water, no chelating substance. The procedure: Changes in the solubility of the insoluble salt due to the addition of a chelating substance were measured. The amount of PQQ dissolved was measured by mixing a chelating substance with crystalline calcium salts of PQQ obtained in Examples 1 and 2, adding the mixture to water (1 mL), allowing the reaction mixture to stand for four hours at room temperature, removing insoluble components through centrifugation, and subjecting the resultant liquid to absorption measurement at 450 nm.

One substance from patent US8969563B2, “Calcium salt of pyrroloquinoline quinone” (Mitsubishi Gas Chemical Company, Inc., priority 2010, dated 2015) can be followed below.

On to “crystalline calcium salt of PQQ [Example 2]”, for which, in data set [1], the water solubility entry is on record as “poorly water-soluble”. Also, the “solubility of the calcium salt alone” value in data set [2] is “very low”.
